Test [1] deals with N27. Description: Induction of necrosis in rat N27 cells at 1 uM measured after 24 hrs by brightfield/ fluorescence imaging. Type of test: functional, cell-based.
Test [2] has as its system N27. Description: Induction of apoptosis in rat N27 cells at 1 uM measured after 24 hrs by brightfield/ fluorescence imaging. In kind it is functional, cell-based.
Test [3] addresses Nuclear receptor subfamily 4 group A member 2 (Homo sapiens, UniProt P43354). The test can be described thus: Agonist activity at Gal4-fused human full length Nurr1 LBD transfected in HEK293T cells incubated for 16 hrs by firefly/renilla based Dual-Glo luciferase assay. In kind it is cell-based. To be noted: filed as agonist.
Test [4] has as its system N27. The test can be described thus: Induction of apoptosis in rat N27 cells at 100 uM measured after 24 hrs by brightfield/ fluorescence imaging. In kind it is functional, cell-based.
In test [5] the test system is N27. The test can be described thus: Induction of necrosis in rat N27 cells at 100 uM measured after 24 hrs by brightfield/ fluorescence imaging. Type of test: functional, cell-based.

Protein sequences, listed by entry. Tags and fused reporters are not part of them.
UniProt P43354, whole entry: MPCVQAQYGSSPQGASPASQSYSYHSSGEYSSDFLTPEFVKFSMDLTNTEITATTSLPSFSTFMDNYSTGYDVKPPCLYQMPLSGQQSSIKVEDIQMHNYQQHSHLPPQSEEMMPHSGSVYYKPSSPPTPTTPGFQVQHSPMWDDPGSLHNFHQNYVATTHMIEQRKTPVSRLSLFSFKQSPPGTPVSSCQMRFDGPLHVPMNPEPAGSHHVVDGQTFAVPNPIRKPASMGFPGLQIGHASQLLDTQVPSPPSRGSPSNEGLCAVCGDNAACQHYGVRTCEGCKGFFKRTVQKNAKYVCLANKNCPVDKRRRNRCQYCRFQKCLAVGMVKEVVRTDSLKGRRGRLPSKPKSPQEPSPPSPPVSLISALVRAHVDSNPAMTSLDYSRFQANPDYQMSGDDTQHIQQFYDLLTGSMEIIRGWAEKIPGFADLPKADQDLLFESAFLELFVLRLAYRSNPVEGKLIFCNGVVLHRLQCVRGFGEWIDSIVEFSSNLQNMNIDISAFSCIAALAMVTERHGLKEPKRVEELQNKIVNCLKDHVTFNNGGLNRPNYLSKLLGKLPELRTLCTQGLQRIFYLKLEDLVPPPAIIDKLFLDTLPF

Active and inactive are the calls of the source. The calls are words filed in the database; no cut-off is given here.

`C#CCOc1cccc(-c2ccc(NC(=O)C3=C(C(=O)O)CCC3)c(F)c2)c1`: the outcome in the test on N27 [1] and in the test on N27 [2] was inactive. Regarding `Cc1cccc(C)c1-c1nc(CCC(=O)O)oc1-c1ccccc1`, the result in test [3] was Active. In the case of `O=C(O)CCc1nc(-c2ccccc2)c(-c2ccccc2)o1`, the result with N27 [4] and in the test with N27 [5] was inactive.

With `Cc1nc(-c2ccccc2)c(-c2ccccc2)o1`, the outcome in test [3] was Active.

Values taken from ChEMBL document CHEMBL5523770 (J Med Chem, 2024).
